# Measured values reported in PubChem BioAssay (NCI).
# Only a part is listed here, and it is no random draw. Where a structure was tested more than once in an assay, its records may differ in their call. Some salts or complexes appear as unconnected parts, following the source record. Active and inactive are the calls of the source. Rule as the data show it: active = growth inhibition above about 70%; inactive = the rest.
# Assays:
# [1] = NCI Yeast Anticancer Drug Screen. Data for the rad50 strain (AID 155);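 also: 0% = growth of vehicle-only cultures of the same strain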; conditions: S. cerevisiae rad50 strain growth inhibition, hits give high values
# [2] = NCI Yeast Anticancer Drug Screen. Data for the mec2-1 strain (AID 157); conditions: S. cerevisiae mec2-1 strain, hits give high values
# [3] = NCI Yeast Anticancer Drug Screen. Data for the sgs1 mgt1 strain (AID 161);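 also: 0% = growth of cultures given vehicle only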; conditions: S. cerevisiae sgs1 mgt1 strain, hits give high values
# [4] = NCI Yeast Anticancer Drug Screen. Data for the cln2 rad14 strain (AID 165);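 also: 0% = growth equal to vehicle treated cultures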; conditions: S. cerevisiae cln2 rad14 strain, hits give high values
# [5] = NCI Yeast Anticancer Drug Screen. Data for the bub3 strain (AID 167); conditions: S. cerevisiae bub3 mutant strain, hits give high values
# [6] = NCI Yeast Anticancer Drug Screen. Data for the mlh1 rad18 strain (AID 175); conditions: S. cerevisiae mlh1 rad18 strain growth inhibition, hits give high values
# [7] = NCI Yeast Anticancer Drug Screen. Data for the sgs1 strain (AID 173);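 also: 0% = growth of vehicle-only control cultures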; conditions: S. cerevisiae sgs1 mutant, hits give high values
# Outline: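 Yeast mutant strains carrying defined defects in DNA damage repair or cell cycle control were exposed to test compounds. Growth inhibition was scored against vehicle-treated controls.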
# [8] = at 5.0 µM (retest, dose inferred, filed as 0.5)
# [9] = at 50.0 µM (retest, dose inferred, filed as 5.0)
smiles,measurement,setting,value
C/C=C/c1cccc2ccccc12.O=[N+]([O-])c1cc([N+](=O)[O-])cc([N+](=O)[O-])c1,growth inhibition,[1]; [8],inactive: 17%
same,growth inhibition,[1]; [9],active: 81%
same,growth inhibition,[1]; at 50.0 µM,active: 99%
same,growth inhibition,[2]; [8],inactive: 12%
same,growth inhibition,[2]; [9],inactive: 68%
same,growth inhibition,[2]; at 50.0 µM,active: 99.6%
same,growth inhibition,[3]; [8],inactive: 26%
same,growth inhibition,[3]; [9],inactive: 55%
same,growth inhibition,[3]; at 50.0 µM,active: 99.5%
same,growth inhibition,[4]; [8],inactive: 16%
same,growth inhibition,[4]; [9],active: 99%
same,growth inhibition,[4]; at 50.0 µM,active: 99.3%
same,growth inhibition,[5]; [8],inactive: 12%
same,growth inhibition,[5]; [9],active: 97%
same,growth inhibition,[5]; at 50.0 µM,active: 96.7%
same,growth inhibition,[6]; [8],inactive: 26%
same,growth inhibition,[6]; [9],active: 99%
same,growth inhibition,[6]; at 50.0 µM,active: 99.4%
CCOC(=S)Sc1c([N+](=O)[O-])cc([N+](=O)[O-])cc1[N+](=O)[O-],growth inhibition,[1]; [8],active: 90%
same,growth inhibition,[1]; [9],active: 98%
same,growth inhibition,[1]; at 50.0 µM,active: 93.1%
same,growth inhibition,[2]; [8],active: 99%
same,growth inhibition,[2]; [9],active: 99%
same,growth inhibition,[2]; at 50.0 µM,active: 94.3%
same,growth inhibition,[3]; [8],active: 92%
same,growth inhibition,[3]; [9],active: 98%
same,growth inhibition,[3]; at 50.0 µM,active: 92.6%
same,growth inhibition,[4]; [8],active: 87%
same,growth inhibition,[4]; [9],active: 99%
same,growth inhibition,[4]; at 50.0 µM,active: 90.2%
same,growth inhibition,[5]; [8],active: 99%
same,growth inhibition,[5]; [9],active: 98%
same,growth inhibition,[5]; at 50.0 µM,active: 91.5%
same,growth inhibition,[6]; [8],active: 99%
same,growth inhibition,[6]; [9],active: 98%
same,growth inhibition,[6]; at 50.0 µM,active: 92%
O=C(Cl)c1c([N+](=O)[O-])cc([N+](=O)[O-])cc1[N+](=O)[O-],growth inhibition,[1]; [8],inactive: 9%
same,growth inhibition,[1]; [9],active: 94%
same,growth inhibition,[1]; at 50.0 µM,active: 99.5%
same,growth inhibition,[2]; [8],inactive: 14%
same,growth inhibition,[2]; [9],active: 98%
same,growth inhibition,[2]; at 50.0 µM,active: 98.8%
same,growth inhibition,[3]; [8],inactive: 20%
same,growth inhibition,[3]; [9],active: 95%
same,growth inhibition,[3]; at 50.0 µM,active: 99%
same,growth inhibition,[4]; [8],inactive: -16%
same,growth inhibition,[4]; [9],inactive: 44%
same,growth inhibition,[4]; at 50.0 µM,active: 91.7%
same,growth inhibition,[5]; [8],inactive: 1%
same,growth inhibition,[5]; [9],active: 98%
same,growth inhibition,[5]; at 50.0 µM,active: 98.7%
same,growth inhibition,[6]; [8],inactive: 18%
same,growth inhibition,[6]; [9],active: 98%
same,growth inhibition,[6]; at 50.0 µM,active: 99.5%
Cc1ccccc1[As]=O (stereo unspecified),growth inhibition,[1]; [8],active: 94%
same,growth inhibition,[1]; [9],active: 99%
same,growth inhibition,[1]; at 50.0 µM,active: 99.3%
same,growth inhibition,[2]; [8],active: 98%
same,growth inhibition,[2]; [9],active: 99%
same,growth inhibition,[2]; at 50.0 µM,active: 99.5%
same,growth inhibition,[3]; [8],active: 96%
same,growth inhibition,[3]; [9],active: 99%
same,growth inhibition,[3]; at 50.0 µM,active: 99%
same,growth inhibition,[4]; [8],active: 85%
same,growth inhibition,[4]; [9],active: 99%
same,growth inhibition,[4]; at 50.0 µM,active: 98.8%
same,growth inhibition,[5]; [8],active: 90%
same,growth inhibition,[5]; [9],active: 99%
same,growth inhibition,[5]; at 50.0 µM,active: 99%
same,growth inhibition,[6]; [8],active: 97%
same,growth inhibition,[6]; [9],active: 99%
same,growth inhibition,[6]; at 50.0 µM,active: 99%
[Au+].[N-]=[N+]=N.c1ccc([PH+](c2ccccc2)c2ccccc2)cc1,growth inhibition,[1]; at 1.2 µM,inactive: 3%
same,growth inhibition,[1]; at 3.7 µM,active: 96%
same,growth inhibition,[1]; [8],active: 91%
same,growth inhibition,[1]; at 11.0 µM,active: 97%
same,growth inhibition,[1]; at 33.0 µM,active: 89%
same,growth inhibition,[1]; at 50.0 µM,inactive: 37.5%
same,growth inhibition,[1]; at 100.0 µM,active: 84%
same,growth inhibition,[2]; at 1.2 µM,inactive: 36%
same,growth inhibition,[2]; at 3.7 µM,active: 95%
same,growth inhibition,[2]; [8],active: 97%
same,growth inhibition,[2]; at 11.0 µM,active: 97%
same,growth inhibition,[2]; at 33.0 µM,active: 93%
same,growth inhibition,[2]; [9],active: 98%
same,growth inhibition,[2]; at 50.0 µM,inactive: 6.75%
same,growth inhibition,[2]; at 100.0 µM,active: 89%
same,growth inhibition,[3]; [8],active: 78%
same,growth inhibition,[3]; at 50.0 µM,inactive: 20.6%
same,growth inhibition,[4]; [8],active: 76%
same,growth inhibition,[4]; at 50.0 µM,inactive: 8.3%
same,growth inhibition,[5]; at 1.2 µM,inactive: 2%
same,growth inhibition,[5]; at 3.7 µM,inactive: 2%
same,growth inhibition,[5]; [8],inactive: -3%
same,growth inhibition,[5]; at 33.0 µM,active: 95%
same,growth inhibition,[5]; at 100.0 µM,active: 91%
same,growth inhibition,[7]; at 1.2 µM,inactive: 12%
same,growth inhibition,[7]; at 3.7 µM,active: 97%
same,growth inhibition,[7]; at 33.0 µM,active: 96%
same,growth inhibition,[7]; at 100.0 µM,active: 92%
same,growth inhibition,[6]; [8],active: 79%
same,growth inhibition,[6]; at 50.0 µM,inactive: 24.7%
C[n+]1ccccc1/C=C/c1ccccc1.O=[N+]([O-])c1cc([N+](=O)[O-])c([O-])c([N+](=O)[O-])c1,growth inhibition,[1]; [8],inactive: -2%
same,growth inhibition,[1]; [9],inactive: -5%
same,growth inhibition,[1]; at 50.0 µM,active: 93.6%
same,growth inhibition,[2]; [8],inactive: 0%
same,growth inhibition,[2]; [9],inactive: 2%
same,growth inhibition,[2]; at 50.0 µM,active: 78.8%
same,growth inhibition,[3]; [8],inactive: -14%
same,growth inhibition,[3]; [9],inactive: 10%
same,growth inhibition,[3]; at 50.0 µM,active: 95.2%
same,growth inhibition,[4]; [8],inactive: 4%
same,growth inhibition,[4]; [9],inactive: -7%
same,growth inhibition,[4]; at 50.0 µM,active: 97.8%
same,growth inhibition,[5]; [8],inactive: -2%
same,growth inhibition,[5]; [9],inactive: -3%
same,growth inhibition,[5]; at 50.0 µM,active: 78%
same,growth inhibition,[6]; [8],inactive: 1%
same,growth inhibition,[6]; [9],inactive: -6%
same,growth inhibition,[6]; at 50.0 µM,active: 91.2%
CCCCCCCCCCCCCCCC[C@H]1C[N+](C)(C)CCO[P@](C)(=O)O1,growth inhibition,[1]; [8],inactive: 26%
same,growth inhibition,[1]; [9],active: 99%
same,growth inhibition,[1]; at 50.0 µM,active: 90.5%
same,growth inhibition,[2]; [8],inactive: 60%
same,growth inhibition,[2]; [9],active: 99%
same,growth inhibition,[2]; at 50.0 µM,active: 92%
same,growth inhibition,[3]; [8],active: 97%
same,growth inhibition,[3]; [9],active: 98%
same,growth inhibition,[3]; at 50.0 µM,active: 91.2%
same,growth inhibition,[4]; [8],inactive: 32%
same,growth inhibition,[4]; [9],active: 97%
same,growth inhibition,[4]; at 50.0 µM,active: 91.2%
same,growth inhibition,[5]; [8],inactive: 39%
same,growth inhibition,[5]; [9],active: 98%
same,growth inhibition,[5]; at 50.0 µM,active: 89.2%
same,growth inhibition,[6]; [8],inactive: 40%
same,growth inhibition,[6]; [9],active: 99%
same,growth inhibition,[6]; at 50.0 µM,active: 90.7%
CSC(C)C(C)[S+](C)C.O=[N+]([O-])c1cc([N+](=O)[O-])c(S(=O)(=O)[O-])c([N+](=O)[O-])c1,growth inhibition,[1]; [8],inactive: 5%
same,growth inhibition,[1]; [9],inactive: 24%
same,growth inhibition,[1]; at 50.0 µM,inactive: 44.3%
same,growth inhibition,[2]; [8],inactive: 5%
same,growth inhibition,[2]; [9],inactive: 50%
same,growth inhibition,[2]; at 50.0 µM,inactive: 28.8%
same,growth inhibition,[3]; [8],inactive: 2%
same,growth inhibition,[3]; [9],inactive: 60%
same,growth inhibition,[3]; at 50.0 µM,active: 72.5%
same,growth inhibition,[4]; [8],inactive: -4%
same,growth inhibition,[4]; [9],inactive: 26%
same,growth inhibition,[4]; at 50.0 µM,inactive: 44.5%
same,growth inhibition,[5]; [8],inactive: 4%
same,growth inhibition,[5]; [9],inactive: 36%
same,growth inhibition,[5]; at 50.0 µM,inactive: 28.9%
same,growth inhibition,[6]; [8],inactive: 28%
same,growth inhibition,[6]; [9],inactive: 57%
same,growth inhibition,[6]; at 50.0 µM,inactive: 32.5%
